{"source": "patent US12583836B2", "about": "(Anaxis Pharma Pty Ltd, priority 2020, dated 2026)", "molecular_target": "T1, MLKL (full length) (Homo sapiens, UniProt Q8NB16)", "T1 construct": "purchased DiscoverX (KINOMEscan service); host or cells: E. coli BL21-derived (T7 phage) or HEK293", "T1 sequence (Q8NB16 1-471)": "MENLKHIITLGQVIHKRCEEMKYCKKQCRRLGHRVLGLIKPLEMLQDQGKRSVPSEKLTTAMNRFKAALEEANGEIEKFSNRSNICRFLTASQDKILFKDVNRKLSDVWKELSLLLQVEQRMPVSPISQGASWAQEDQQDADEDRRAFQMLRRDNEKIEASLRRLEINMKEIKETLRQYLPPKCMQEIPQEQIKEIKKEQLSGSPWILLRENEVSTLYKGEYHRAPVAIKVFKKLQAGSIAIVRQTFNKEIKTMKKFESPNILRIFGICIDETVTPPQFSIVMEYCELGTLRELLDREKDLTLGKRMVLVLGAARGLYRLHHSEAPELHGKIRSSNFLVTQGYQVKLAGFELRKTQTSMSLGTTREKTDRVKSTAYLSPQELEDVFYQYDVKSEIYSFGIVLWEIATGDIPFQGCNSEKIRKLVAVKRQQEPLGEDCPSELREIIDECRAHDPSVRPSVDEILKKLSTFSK", "assay": "KINOMEscan binding assay, MLKL", "conditions": "equilibrium dissociation constant, class symbols", "note": "pKd: −log10 of the molar value."}
{"molecule": "C[C@H](Oc1cc(NS(=O)(=O)CC(F)(F)F)ccc1-c1n[nH]c(Nc2cnccn2)c1C(N)=O)c1ccc(F)cc1", "note": "[Compound 244, 3-{2-[(1S)-1-(4-fluorophenyl)ethoxy]-4-(2,2,2-trifluoroethanesulfonamido)phenyl}-5-[(pyrazin-2-yl)amino]-1H-pyrazole-4-carboxamide]", "values": [{"measurement": "pKd", "result": "6.00 to 8.00"}]}
{"molecule": "CCS(=O)(=O)Nc1ccc(-c2n[nH]c(Nc3ccc4ccccc4n3)c2C(N)=O)cc1", "note": "[Compound 89, 3-(4-(ethylsulfonamido)phenyl)-5-(quinolin-2-ylamino)-1H-pyrazole-4-carboxamide]", "values": [{"measurement": "pKd", "result": "> 8.00"}]}
{"molecule": "CCS(=O)(=O)Nc1ccc(-c2n[nH]c(Nc3cccc(OCCOC)n3)c2C(N)=O)cc1", "note": "[Compound 128, 3-(4-(ethylsulfonamido)phenyl)-5-((6-(2-methoxyethoxy)pyridin-2-yl)amino)-1H-pyrazole-4-carboxamide]", "values": [{"measurement": "pKd", "result": "4.52 to 6.00"}]}
{"molecule": "COC[C@@H](Cc1cc(-c2n[nH]c(Nc3cnccn3)c2C(N)=O)ccc1NS(=O)(=O)C(F)F)c1ccc(F)cc1", "note": "(single isomer, unassigned) [Compound 273]", "values": [{"measurement": "pKd", "result": "> 8.00"}]}
{"molecule": "NC(=O)c1c(-c2ccc(NS(=O)(=O)C(F)F)c(Oc3ccc(F)cc3)c2)n[nH]c1Nc1cnccn1", "note": "[Compound 177, 3-(4-((difluoromethyl)sulfonamido)-3-(4-fluorophenoxy)phenyl)-5-(pyrazin-2-ylamino)-1H-pyrazole-4-carboxamide]", "values": [{"measurement": "pKd", "result": "> 8.00"}]}
{"molecule": "CCS(=O)(=O)Nc1ccc(-c2n[nH]c(Nc3cccc(C(F)(F)F)n3)c2C(N)=O)cc1OCC(C)C", "note": "[Compound 12, 3-(4-(ethylsulfonamido)-3-isobutoxyphenyl)-5-((6-(trifluoromethyl)pyridin-2-yl)amino)-1H-pyrazole-4-carboxamide]", "values": [{"measurement": "pKd", "result": "6.00 to 8.00"}]}
{"molecule": "NC(=O)c1c(-c2ccc(NS(=O)(=O)Cc3cccc(Cl)c3)cc2)n[nH]c1Nc1cccc(C(F)(F)F)n1", "note": "[Compound 59, 3-(4-(((3-chlorophenyl)methyl)sulfonamido)phenyl)-5-((6-(trifluoromethyl)pyridin-2-yl)amino)-1H-pyrazole-4-carboxamide]", "values": [{"measurement": "pKd", "result": "6.00 to 8.00"}]}
{"molecule": "NC(=O)c1c(-c2ccc(NS(=O)(=O)C(F)F)c(OCc3ccc(Cl)cc3)c2)n[nH]c1Nc1cnc(C(F)(F)F)cn1", "note": "[Compound 235, 3-(3-((4-chlorobenzyl)oxy)-4-((difluoromethyl)sulfonamido)phenyl)-5-((5-(trifluoromethyl)pyrazin-2-yl)amino)-1H-pyrazole-4-carboxamide]", "values": [{"measurement": "pKd", "result": "> 8.00"}]}
{"molecule": "CCS(=O)(=O)Nc1ccc(-c2n[nH]c(Nc3cnc(OC)cn3)c2C(N)=O)cc1OCc1ccc(F)cc1", "note": "[Compound 14, 3-(4-(ethylsulfonamido)-3-((4-fluorobenzyl)oxy)phenyl) 5-((5-methoxypyrazin-2-yl)amino)-1H-pyrazole-4 carboxamide]", "values": [{"measurement": "pKd", "result": "> 8.00"}]}
{"molecule": "C[C@H](Oc1cc(-c2n[nH]c(Nc3cc(C4CCOCC4)on3)c2C(N)=O)ccc1NS(=O)(=O)C(F)F)c1ccc(F)cc1", "note": "[Compound 303, (S)-3-(4-((difluoromethyl)sulfonamido)-3-(1-(4-fluorophenyl)ethoxy)phenyl)-5-((5-(tetrahydro-2H-pyran-4-yl)isoxazol-3-yl)amino)-1H-pyrazole-4-carboxamide]", "values": [{"measurement": "pKd", "result": "> 8.00"}]}
{"molecule": "CCS(=O)(=O)Nc1ccc(-c2n[nH]c(Nc3cccc(C(F)(F)F)n3)c2C(N)=O)cc1OCc1ccncc1", "note": "[Compound 16, 3-(4-(ethylsulfonamido)-3-(pyridin-4-ylmethoxy)phenyl)-5-((6-(trifluoromethyl)pyridin-2-yl)amino)-1H-pyrazole-4-carboxamide]", "values": [{"measurement": "pKd", "result": "6.00 to 8.00"}]}
{"molecule": "CCS(=O)(=O)Nc1ccc(-c2n[nH]c(Nc3cccc(C(F)(F)F)n3)c2C(N)=O)cc1Oc1ccc(F)cc1", "note": "[Compound 149, 3-(4-(ethylsulfonamido)-3-(4-fluorophenoxy)phenyl)-5-((6-(trifluoromethyl)pyridine-2-yl)amino)-1H-pyrazole-4-carboxamide]", "values": [{"measurement": "pKd", "result": "> 8.00"}]}
{"molecule": "CCS(=O)(=O)Nc1ccc(-c2n[nH]c(Nc3ccc(C(F)(F)F)cn3)c2C(N)=O)cc1OCc1ccc(F)cc1", "note": "[Compound 207]", "values": [{"measurement": "pKd", "result": "6.00 to 8.00"}]}
{"molecule": "NC(=O)c1c(-c2ccc(NS(=O)(=O)CC(F)(F)F)c(Oc3ccc(Cl)cc3)c2)n[nH]c1Nc1cnccn1", "note": "[Compound 168, 3-(3-(4-chlorophenoxy)-4-((2,2,2-trifluoroethyl)sulfonamido)phenyl)-5-(pyrazin-2-ylamino)-1H-pyrazole-4-carboxamide]", "values": [{"measurement": "pKd", "result": "> 8.00"}]}
{"molecule": "CCS(=O)(=O)Nc1ccc(-c2n[nH]c(Nc3cccc(C(F)(F)F)n3)c2C(N)=O)cc1OCc1cccc(Cl)c1", "note": "[Compound 3, 3-(3-((3-chlorobenzyl)oxy)-4-(ethylsulfonamido)phenyl)-5-((6-(trifluoromethyl)pyridin-2-yl)amino)-1H-pyrazole-4-carboxamide]", "values": [{"measurement": "pKd", "result": "4.52 to 6.00"}]}
{"molecule": "CCS(=O)(=O)Nc1ccc(-c2n[nH]c(Nc3cnccn3)c2C(N)=O)cc1OC1CCCc2ccccc21", "note": "(stereo not shown) [Compound 232, 3-[4-ethanesulfonamido-3-(1,2,3,4-tetrahydronaphthalen-1-yloxy)phenyl]-5-[(pyrazin-2-yl)amino]-1H-pyrazole-4-carboxamide]", "values": [{"measurement": "pKd", "result": "> 8.00"}]}
{"molecule": "COCCOc1cc(Nc2[nH]nc(-c3ccc(NS(=O)(=O)CCOC)cc3)c2C(N)=O)ccn1", "note": "[Compound 120, 5-((2-(2-methoxyethoxy)pyridin-4-yl)amino)-3-(4-((2-methoxyethyl)sulfonamido)phenyl)-1H-pyrazole-4-carboxamide]", "values": [{"measurement": "pKd", "result": "> 8.00"}]}
{"molecule": "NC(=O)c1c(-c2ccc(NS(=O)(=O)CCC(F)(F)F)c(OCc3ccc(F)cc3)c2)n[nH]c1Nc1cnccn1", "note": "[Compound 184, 3-(3-((4-fluorobenzyl)oxy)-4-((3,3,3-trifluoropropyl)sulfonamido)phenyl)-5-(pyrazin-2-ylamino)-1H-pyrazole-4-carboxamide]", "values": [{"measurement": "pKd", "result": "> 8.00"}]}
{"molecule": "C#CCS(=O)(=O)Nc1ccc(-c2n[nH]c(Nc3ccnc(OCCOC)c3)c2C(N)=O)cc1", "note": "[Compound 109, 5-((2-(2-methoxyethoxy)pyridin-4-yl)amino)-3-(4-(prop-2-yn-1-ylsulfonamido)phenyl)-1H-pyrazole-4-carboxamide]", "values": [{"measurement": "pKd", "result": "> 8.00"}]}
{"molecule": "NC(=O)c1c(-c2ccc(NS(=O)(=O)C3CC3)cc2)n[nH]c1Nc1cccc(C(F)(F)F)n1", "note": "[Compound 52, 3-(4-(cyclopropanesulfonamido)phenyl)-5-((6-(trifluoromethyl)pyridin-2-yl)amino)-1H-pyrazole-4-carboxamide]", "values": [{"measurement": "pKd", "result": "> 8.00"}]}
{"molecule": "CCS(=O)(=O)Nc1ccc(-c2n[nH]c(Nc3cnccn3)c2C(N)=O)cc1OCC(C)C", "note": "[Compound 45, 3-(4-(ethylsulfonamido)-3-isobutoxyphenyl)-5-(pyrazin-2-ylamino)-1H-pyrazole-4-carboxamide]", "values": [{"measurement": "pKd", "result": "6.00 to 8.00"}]}
{"molecule": "CCS(=O)(=O)Nc1ccc(-c2n[nH]c(Nc3cnccn3)c2C(N)=O)cc1OCc1ccc(F)cc1C", "note": "[Compound 171, 3-(4-(ethylsulfonamido)-3-((4-fluoro-2-methylbenzyl)oxy)phenyl)-5-(pyrazin-2-ylamino)-1H-pyrazole-4-carboxamide]", "values": [{"measurement": "pKd", "result": "> 8.00"}]}
{"molecule": "NC(=O)c1c(-c2ccc(NS(=O)(=O)C(F)F)c(OCc3ccc(F)c(F)c3)c2)n[nH]c1Nc1ccccn1", "note": "[Compound 226]", "values": [{"measurement": "pKd", "result": "> 8.00"}]}
{"molecule": "Cc1cnc(Nc2[nH]nc(-c3ccc(NS(=O)(=O)CC(F)(F)F)c(OCc4ccc(Cl)cc4)c3)c2C(N)=O)cn1", "note": "[Compound 162, 3-(3-((4-chlorobenzyl)oxy)-4-((2,2,2-trifluoroethyl)sulfonamido)phenyl)-5-((5-methylpyrazin-2-yl)amino)-1H-pyrazole-4-carboxamide]", "values": [{"measurement": "pKd", "result": "> 8.00"}]}
{"molecule": "CCS(=O)(=O)Nc1ccc(-c2n[nH]c(Nc3ccccn3)c2C(N)=O)cc1OCC1CCCCC1", "note": "[Compound 35, 3-(3-(cyclohexylmethoxy)-4-(ethylsulfonamido)phenyl)-5-(pyridin-2-ylamino)-1H-pyrazole-4-carboxamide]", "values": [{"measurement": "pKd", "result": "6.00 to 8.00"}]}
{"molecule": "CCS(=O)(=O)Nc1ccc(-c2n[nH]c(Nc3ccc(C#N)cc3)c2C(N)=O)cc1", "note": "[Compound 102, 5-((4-cyanophenyl)amino)-3-(4-(ethylsulfonamido)phenyl)-1H-pyrazole-4-carboxamide]", "values": [{"measurement": "pKd", "result": "> 8.00"}]}
{"molecule": "NC(=O)c1c(-c2ccc(NS(=O)(=O)CCC(F)(F)F)cc2)n[nH]c1Nc1cccc(C(F)(F)F)n1", "note": "[Compound 189, 5-((6-(trifluoromethyl)pyridine-2-yl)amino)-3-(4-((3,3,3-trifluoropropyl)sulfonamido)phenyl)-1H-pyrazole-4-carboxamide]", "values": [{"measurement": "pKd", "result": "> 8.00"}]}
{"molecule": "CC(C)S(=O)(=O)Nc1ccc(-c2n[nH]c(Nc3cnccn3)c2C(N)=O)cc1", "note": "[Compound 71, 3-(4-((1-methylethyl)sulfonamido)phenyl)-5-(pyrazin-2-ylamino)-1H-pyrazole-4-carboxamide]", "values": [{"measurement": "pKd", "result": "> 8.00"}]}
{"molecule": "NC(=O)c1c(-c2ccc(NS(=O)(=O)Cc3cccc(C(F)(F)F)c3)cc2)n[nH]c1Nc1cnccn1", "note": "[Compound 83, 5-[(pyrazin-2-yl)amino]-3-(4-{[3-(trifluoromethyl)phenyl]methanesulfonamido}phenyl)-1H-pyrazole-4-carboxamide]", "values": [{"measurement": "pKd", "result": "6.00 to 8.00"}]}
{"molecule": "Cc1cnc(Nc2[nH]nc(-c3ccc(NS(=O)(=O)C(F)F)c(OCc4ccc(F)c(F)c4)c3)c2C(N)=O)cn1", "note": "[Compound 291, 3-(3-((3,4-difluorobenzyl)oxy)-4-((difluoromethyl)sulfonamido)phenyl)-5-((5-methylpyrazin-2-yl)amino)-1H-pyrazole-4-carboxamide]", "values": [{"measurement": "pKd", "result": "> 8.00"}]}
{"molecule": "C[C@@H](Oc1cc(-c2n[nH]c(Nc3cnccn3)c2C(N)=O)ccc1NS(=O)(=O)C(F)F)c1ncco1", "note": "(single isomer, unassigned) [Compound 280]", "values": [{"measurement": "pKd", "result": "> 8.00"}]}
